The subject of the data set is A549 cells. The data set is described as follows: WST-8 cell proliferation cytotoxicity assay. The following applies: Table 4, preliminary SAR. The class given is cell-based, human. A general note: Formazan colour is commonly taken as a measure of viable cells.

Usually CC50 stands for the concentration that lowers cell viability or growth by half. Higher therefore signals better tolerance by the cells. As for `CN1CCC(Oc2ccc(Cl)cc2C(=O)Nc2ccc3c(c2)S(=O)(=O)C=C3)CC1`, the CC50 is 8.4 µM.

(Values after patent publication US11767303B2, “Compounds and methods for inhibiting viral replication and methods of treating and preventing flaviviral infections” (priority 2020, dated 2023).)
